Sfp PPTase inh – inhibitors of Bacillus subtilis Sfp phosphopantetheinyl transferase; Q9F4F7; Biochemical Sfp PPTase activity, qHTS; Potency, µM, hits mostly inhibitors; hit rate 3.5% among 310,000;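 further: the enzyme is Sfp with the accession as filed and its product quenches rhodamine fluorescence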
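Step 1, compound plus 15 nM Sfp-PPTase, 15 min, room temperature. Step 2, add rhodamine-CoA (5 uM) and BHQ-2-YbbR (12.5 uM). Step 3, read 525/598 nm fluorescence at 0 and 30 min.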
ALDH1A1 block – blocks purified human ALDH1A1 activity | AID 1030 | Potency, µM (series often up to 75.3 µM), actives largely listed as inhibitors | Purified ALDH1A1, NADH fluorescence, propionaldehyde substrate | hit rate 7.3% among 220,000 | P00352; active means well fitted inhibition curve with a large enough effect, not every such curve was filed as active; inconclusive means small, poorly fitted or top-dose-only effect, or another doubt; inactive means no such curve, though single readings can be large or run the other way
LMNA splice mod – changes lamin A minigene splicing in HeLa cells | AID 1487 | HeLa LMNA splicing GFP/RFP minigene ratio, 48 h | hit rate 0.01% among 200,000 | Potency, µM (top dose mostly 46.1 µM), most hits filed as inhibitors; active means well fitted inhibition curve with a large enough effect in the signal ratio, with a control signal flat, not every such curve was filed as active; inconclusive means small, poorly fitted or top-dose-only effect, or effect the other way, or a change in a side signal; the % refers to the signal ratio
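S3 HeLa cells stably expressing lamin A-EGFP splicing minigene plus DsRed2, 600 cells/well, 48 h compound exposure at 37C. Laser-scanning cytometry; analysed as GFP (500-530 nm)/RFP (575-640 nm) total intensity ratio; 0.5% DMSO vehicle.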
G9a block – blocks human histone lysine methyltransferase G9a; Q96KQ7; G9a H3K9 monomethylation, AlphaScreen, 2 h; Potency, µM (highest dose often 102 µM), actives largely listed as inhibitors; hit rate 8.8% among 350,000; further: nearly all actives have a fitted effect of over 75% in size
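Compounds were preincubated with 20 nM G9a for 15 min, after which biotinylated H3K9 peptide (500 nM) and SAM (20 uM) started a 2 h room-temperature reaction. Monomethylated product was quantified by antibody-based AlphaScreen chemiluminescence.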
KDM4E inh – blocks human JMJD2E demethylase activity; JMJD2E catalytic domain, FDH-coupled NADH fluorescence (FDH is formaldehyde dehydrogenase); Potency, µM (doses to about 57.1 µM), usual class: inhibitors; hit rate 1.6% among 230,000; B2RXH2; active means well fitted inhibition curve with a large enough effect, not every such curve was filed as active; inconclusive means small, poorly fitted or top-dose-only effect, or another doubt; inactive means no such curve, though single readings can be large or run the other way; further: nearly all actives have a fitted effect of over 50% in size
miR-21 reporter – miR-21 reporter, rising signal | AID 2288 | HeLa miR-21 FLuc reporter, luciferase, 48 h | 340,000 tested, under 10 active | Potency, µM (titrated, usually from 38.3 µM); active = well fitted rising curve with a large enough effect; inconclusive = small, poorly fitted or top-dose-only effect; inactive = no such curve, though single readings can be large or run the other way;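 also: miR-21 action dims this reporter so a rising signal means less miR-21 action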
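HeLa miR-21-FLuc reporter line, endogenous miR-21; 2000 cells/well in DMEM/10% FBS; compound titration up to ~40uM final, 48 h, 37 degree Celsius; luciferase detection reagent, 15 min lysis, CCD luminescence.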
A number is an active result; i = inactive; ? = inconclusive; nt = no result given; [ ] = another dose, or the depositor's remark. Most compounds without a hit are left out; they make up all but 13% or so of the library. Unless noted, the call rests on the fitted dose curve; in most records, active means well fitted curve in the direction sought with a large enough effect; inconclusive means small, poorly fitted or top-dose-only effect, or another doubt; inactive means no such curve, though single readings can be large; an effect the other way counts as inactive or inconclusive.

SMILES	Sfp PPTase inh	ALDH1A1 block	LMNA splice mod	G9a block	KDM4E inh	miR-21 reporter
CN(CC(=O)NCCCc1ccccc1)Cc1ccc(Br)cc1	i	nt	nt	10µM	nt	i
CN(CC(=O)NCc1ccccc1)Cc1cccc(F)c1	?	nt	nt	45µM	nt	i
COc1cccc(C2N=C(c3ccccc3C)NO2)c1OC (stereo unspecified)	i	nt	nt	?	nt	i
COC(=O)CCC(C)C1CCC2C3C(O)C[C@@H]4CC(O)CC[C@@]4(C)C3CC(O)[C@]12C (stereo partly specified)	i	i	i	nt	i	nt
Cc1nc(N2CCCCC2)sc1C(=O)c1ccc(SCCO)c([N+](=O)[O-])c1	i	13µM	nt	40µM	i	i
Cc1nc(N2CCCCC2)sc1C(=O)c1cccc([N+](=O)[O-])c1	i	10µM	?	?	i	i
O=[N+]([O-])c1ccc(N2CCCCC2)cc1SCCO	i	?	i	?	i	i
CCC(=O)N1CCc2cc(S(=O)(=O)CCC(=O)Nc3cccc(C)n3)ccc21	i	i	nt	50µM	i	i
CCC(=O)N1CCc2cc(S(=O)(=O)CCC(=O)Nc3ccc(C)c(F)c3)ccc21	i	i	i	i	i	i
CC(=O)N1CCc2cc(S(=O)(=O)CCC(=O)Nc3ccc(Cl)cc3F)ccc21	i	nt	nt	71µM	nt	i
CCC(=O)N1CCc2cc(S(=O)(=O)CCC(=O)Nc3cc(Cl)ccc3OC)ccc21	nt	nt	nt	13µM	nt	i
COc1ccc(NC(=O)CCS(=O)(=O)c2ccc3c(c2)CCCN3C(C)=O)cc1	i	?	i	i	i	i
CCC(=O)N1CCc2cc(S(=O)(=O)CCC(=O)Nc3ccc(OC)cc3)ccc21	i	nt	nt	nt	nt	i
CCOc1ccc(NC(=O)CCS(=O)(=O)c2ccc3c(c2)CCCN3C(C)=O)cc1	i	19µM	i	i	i	i
CCOC(=O)c1c(C)c(-c2ccccc2)n(CC(=O)NC2CCCCC2)c1C	nt	nt	nt	i	nt	i
COc1cccc(CNC(=O)C2CCN(c3nn4c(=O)cc(C)nc4s3)CC2)c1	i	nt	nt	i	nt	i
O=C(NCc1cccs1)c1nn(-c2ccccc2F)nc1CO	nt	nt	nt	i	nt	?
O=C(NCc1ccc(Cl)cc1)C1CCN(S(=O)(=O)c2ccc(F)cc2)CC1	i	?	i	i	i	i
NC(=O)CC(NC(=O)Cc1ccc(Cl)cc1)c1ccc(NCCOc2ccccc2)c([N+](=O)[O-])c1 (stereo unspecified)	i	nt	nt	nt	nt	i
CCN(c1ccc(NC(=O)c2ccc(Cl)nc2)cc1)C(C)C	i	i	?	22µM	i	i
Cc1cc(C)n(-c2ccc(C(=O)Nc3ccc(N4CCOCC4)cc3)cc2)n1	i	i	i	56µM	i	i
O=C(Nc1ccc(N2CCOCC2)cc1)c1ccc(Cl)nc1	i	i	i	50µM	i	i
O=C(Nc1ccc(N2CCOCC2)c(Cl)c1)c1cccc(-n2cnnc2)c1	i	nt	nt	i	nt	i
Cc1cc(C)n(-c2ccc(C(=O)Nc3ccc4c(c3)OCO4)cc2)n1	i	i	i	i	i	i
O=C(Nc1ccc(N2CCOCC2)cc1)c1cccc(-n2cnnc2)c1	i	nt	nt	45µM	nt	i
SMILES	Sfp PPTase inh	ALDH1A1 block	LMNA splice mod	G9a block	KDM4E inh	miR-21 reporter
O=C(NC1CCCCC1)C(c1ccccc1)N(C(=O)c1csnn1)C1CCCC1 (stereo unspecified)	i	nt	nt	i	nt	i
Cc1c(C(=O)N(C)C)sc2c1c(=O)n(-c1ccc(Cl)c(Cl)c1)c(=O)n2Cc1ccc(F)cc1	nt	nt	i	i	nt	i
Cc1c2cnn(CC(=O)NCCc3ccccc3)c(=O)c2c(C)n1Cc1ccccc1	nt	nt	nt	i	nt	i
CCCCC/C=C\C[C@@H](O)/C=C/C=C/C=C\[C@@H](O)CCCC(=O)O	i	i	nt	i	i	nt
O=C1/C(=C/c2cccs2)SC(=S)N1c1cccc(O)c1	i	nt	nt	?	i	i
COC(=O)c1n[nH]n(-c2ccccc2)c1=O	nt	nt	nt	i	nt	i
COc1ccc(Cn2nnnc2C(c2ccccc2OC)N2CCC(C(N)=O)CC2)cc1 (stereo unspecified)	i	i	i	i[12.7 µM]	i	i
COc1ccc2cc(C(c3nnnn3C(C)(C)C)N3CCc4ccccc4C3)c(=O)[nH]c2c1 (stereo unspecified)	?	?	i	?	?	i
CCC(C)(C)n1nnnc1C(c1cc2ccc(OC)cc2[nH]c1=O)N1CCc2ccccc2C1 (stereo unspecified)	4.5µM	?	?	2.5µM	?	i
COc1ccc(Cn2nnnc2C(c2ccc(N(C)C)cc2)N2CCC(C(N)=O)CC2)cc1 (stereo unspecified)	i	?	i	13µM	i	i
CCC(C)(C)n1nnnc1C(c1cc2ccc(OC)cc2[nH]c1=O)N1CCc2ccccc21 (stereo unspecified)	10µM	?	?	13µM	?	i
COc1ccc(Cn2nnnc2C(c2cc3ccc(OC)cc3[nH]c2=O)N2CCCCCC2)cc1 (stereo unspecified)	i	?	i	8.9µM	?	i
COc1ccc2[nH]c(=O)c(C(c3nnnn3C3CCCCC3)N3CCN(C)CC3)cc2c1 (stereo unspecified)	i	?	i	i[12.7 µM]	?	i
COc1ccc2cc(C(c3nnnn3C3CCCC3)N3CCc4ccccc4C3)c(=O)[nH]c2c1 (stereo unspecified)	22µM	18µM	i	10µM	?	i
NC(=S)N/N=C/c1ccc(-c2ccc([N+](=O)[O-])cc2)o1	3.5µM	0.89µM	i	22µM	i	i
Cc1ccc(C(=O)N/N=C\c2ccc(-c3ccc([N+](=O)[O-])cc3)o2)cn1	i	i	nt	nt	i	i
CN(/N=C/c1ccc(-c2ccc([N+](=O)[O-])cc2)o1)c1ccccc1	i	nt	nt	i	nt	i
NC(=S)N/N=C/c1ccc(-c2cc(Cl)cc(Cl)c2)o1	50µM	?	?	13µM	i	i
Cc1ccc(-c2ccc(/C=N/O)o2)cc1[N+](=O)[O-]	i	3.2µM	i	?	i	i
COCC(C)NCc1ccc(OC)c(Br)c1 (stereo unspecified)	i	?	i	?	?	i
Cn1c(=O)c2c([nH]c(=S)n2CCCc2ccccc2)n(C)c1=O	50µM	nt	nt	i[0.501 µM]	nt	i
Cn1c(=O)[nH]c(=O)c2c1[nH]c(=S)n2CCCc1ccccc1	14µM	nt	nt	nt	nt	i
Cn1c(=O)n(Cc2ccccc2Cl)c(=O)c2c1[nH]c(=S)n2C	50µM	nt	nt	1.3µM	nt	i
Cn1c(=O)[nH]c(=O)c2c1[nH]c(=S)n2Cc1ccc(Cl)cc1	8.9µM	nt	nt	0.89µM	nt	i
Cn1c(=O)c2c(nc(Br)n2CCCc2ccccc2)n(C)c1=O	?	?	?	i	i	i
Cn1c(=O)n(Cc2ccccc2Cl)c2ccccc21	?	?	nt	i	i	i
CN1CCN(c2nc3c(c(=O)[nH]c(=O)n3C)n2Cc2ccc(Cl)cc2)CC1	i	nt	nt	i	nt	i
COc1cccc(-c2nc(NCCNC(C)=O)c3ccccc3n2)c1	i	i	i	i[0.501 µM]	nt	nt

Assay outcomes: PubChem BioAssay, National Center for Advancing Translational Sciences (NCATS)
